From PubChem BioAssay AID1159536 (DiRusso Lab, Biochemistry Department, University of Nebraska, 2015)
Inconclusive results are not listed.

Test system: Chlamydomonas reinhardtii, Nile Red lipid fluorescence, 72 h
Experiment: algal triacylglycerol accumulation inducers, dose response, qHTS, Chlamydomonas reinhardtii (AID 1159536)

Fc1ccccc1NC1CCN(Cc2ccccc2)CC1
EC50: 9.97 µM
